Measured values reported in patent publication US8563530B2, “Purine nucleoside phosphoramidate” (Gilead Pharmassel LLC, priority 2010, dated 2013).

Test system: HCV replicon RNA-containing Huh7 cells (clone A cells)
Assay: HCV replicon assay
Format: cell-based
Protocol: HCV replicon assay. HCV replicon RNA-containing Huh7 cells (clone A cells; Apath, LLC, St. Louis, Mo.) were kept at exponential growth in Dulbecco's modified Eagle's medium (high glucose) containing 10% fetal bovine serum, 4 mM L-glutamine and 1 mM sodium pyruvate, 1× nonessential amino acids, and G418 (1,000 μg/ml). Antiviral assays were performed in the same medium without G418. Cells were seeded in a 96-well plate at 1,500 cells per well, and test compounds were added immediately after seeding. Incubation time 4 days. At the end of the incubation step, total cellular RNA was isolated (RNeasy 96 kit; Qiagen). Replicon RNA and an internal control (TaqMan rRNA control reagents; Applied Biosystems) were amplified in a single-step multiplex RT-PCR protocol as recommended by the manufacturer. The HCV primers and probe were designed with Primer Express software (Applied Biosystems) and covered highly conserved 5′-untranslated region (UTR) sequences (sense, 5′-AGCCATGGCGTTAGTA(T)GAGTGT-3′ (SEQ ID NO: 1), and antisense, 5′-TTCCGCAGACCACTATGG-3′ (SEQ ID NO: 2); probe, 5′-FAM-[…] -TAMRA-3′) (SEQ ID NO: 3).
To express the antiviral effectiveness of a compound, the threshold RT-PCR cycle of the test compound was subtracted from the average threshold RT-PCR cycle of the no-drug control (ΔCtHCV). […]

CS(=O)(=O)Nc1ccc2c(c1)S(=O)(=O)N=C(C1=C(O)[C@@H]3[C@H]4CC[C@H](C4)[C@@H]3N(Cc3ccc(F)cc3)C1=O)N2 [ANA-598]
Replicon assay result in combination with compound 1: synergism: synergism
